How the values were obtained:
Expi293 cells [1] = settings: luminescence at Tfinal (22 hours) divided by Tinitial, measure of ATP levels, reflective of cell health
Expi293 cells [2] = settings: percentage of Helicons in cells after treatment and wash; Expi293 cells 1x10^6 cells/mL, 22 hours, 37°C; washed twice with DPBS; MS quantitation, single-point calibration; n=2, mean ± SD

Row | Compound | CellTiter-Glo fold change ± SD (Expi293 cells [1]) | Helicon in cells ± SD (%) (Expi293 cells [2])
1 | CC[C@H](C)[C@H](NC(C)=O)C(=O)N[C@@H](CC(C)C)C(=O)N[C@H](C(=O)N[C@]1(C)CCCCCCC=CCCC[C@@](C)(C(=O)N[C@@H](CCC(N)=O)C(=O)N[C@@H](Cc2ccc(O)cc2)C(=O)N[C@@H](CCC(N)=O)C(N)=O)NC(=O)[C@H]([C@@H](C)O)NC(=O)[C@H](Cc2ccccc2)NC(=O)[C@H](C)NC(=O)[C@H](C)NC(=O)[C@H](CCC(=O)O)NC(=O)[C@H](Cc2ccc(O)cc2)NC1=O)[C@@H](C)O [FP08030] | 1.2 ± 0.02 | 0.3 ± 0.0
2 | CC[C@H](C)[C@H](NC(C)=O)C(=O)N[C@@H](CC(C)C)C(=O)N[C@H](C(=O)N[C@]1(C)CCCCCCC=CCCC[C@@](C)(C(=O)N[C@@H](CCC(N)=O)C(=O)N[C@@H](Cc2ccc(O)cc2)C(=O)N[C@@H](CCC(N)=O)C(N)=O)NC(=O)[C@H]([C@@H](C)O)NC(=O)[C@H](Cc2ccccc2)NC(=O)[C@H](C)NC(=O)[C@H](C)NC(=O)[C@H](CCC(=O)O)NC(=O)[C@H](Cc2ccc(O)cc2)NC1=O)[C@@H](C)O [FP08029] | 1.1 ± 0.03 | 0.2 ± 0.0

Reference: PMC9907135 (Proceedings of the National Academy of Sciences of the …, 2022)
